## Binding of CDR-mutated scFvs to a peptide of the spike HR2 region

Target: peptide PDVDLGDISGINAS, taken from heptad repeat 2 (HR2) of SARS-CoV-2 spike.

Parent scFv Ab-14: VH joined to VL by a (GGGGS)3 linker. Changes lie in the light chain CDRs alone.
VH: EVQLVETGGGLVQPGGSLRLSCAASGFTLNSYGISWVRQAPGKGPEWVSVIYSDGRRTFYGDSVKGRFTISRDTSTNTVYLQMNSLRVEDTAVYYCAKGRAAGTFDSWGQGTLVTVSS
VL: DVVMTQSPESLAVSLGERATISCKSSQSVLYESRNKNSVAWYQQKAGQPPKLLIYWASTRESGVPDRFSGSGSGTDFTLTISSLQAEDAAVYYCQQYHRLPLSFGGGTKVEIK

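The parent was found by panning a naive human phage display library on the peptide. Library AAYL50 holds single substitutions and randomly drawn double and triple substitutions in the CDRs. Affinity was read by AlphaSeq, a pooled yeast mating assay with surface-displayed partners. Pairs that bind mate more often; barcode pairs of the diploids are counted by sequencing. Each replicate has its own calibration line, from reference interactions of the BCL2 family. There are three technical replicates.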

Each variant is given by its three light chain CDRs, as the data file delimits them; those of the parent are KSSQSVLYESRNKNSVA, WASTRES, QQYHRLPLS.
Values are log10 of the apparent Kd in nM; lower means stronger binding.
Replicates are averaged; those with no signal do not enter the mean.
"nd" marks a missing value. The strain was present, yet no cells mated with the target were sequenced in any replicate, which points to weak or no binding.
In this assay the parent's reference entry averaged 0.65; its copy inside this library read 1.68.
Background: pairings of library AAYL50 with three empty control strains gave a value in 18% of cases (median 4.19, 5th percentile 2.99). Values in that range, when seen in few replicates, are hard to tell from nonspecific mating. Also given: how often the same scFv was detected with the empty control strains.

CDR-L1,CDR-L2,CDR-L3,"log10 Kd (nM), mean",detected,control signals
KSSQSVCYESRNKNSWA,WASTRES,HQYHRLPLS,4.44,1/3,4/9
KSSQFVLYESRNKKSVA,WASTRES,QQYHALPLS,3.08,2/3,1/9
KSSQSVLIESRNKNSVA,WAYSRES,QQYHRLPLS,2.64,2/3,2/9
KSSQSVLYWSRGKNSVA,WASERES,QQYHRLPLS,2.13,3/3,1/9
KSSYSVLYESRNKNSVA,GASTRES,QQYHGLPLS,0.10,3/3,3/9
KSSQSVQYEARNKNSVA,WASTRES,QQYHCLPLS,1.99,3/3,1/9
KSSTSVLYWSRNKNSVA,WASIRES,QQYHRLPLS,1.05,3/3,1/9
KSSQSVLYESENIPSVA,WASTRES,QQYHRLPLS,1.51,3/3,0/9
KSSQSVLYESRCKNHVA,WASTRES,QQYNRLPLS,2.61,2/3,0/9
KSSNSVLYESRNKNSVH,WASTRES,QQYHSLPLS,nd,0/3,0/9
KSSQSVNYESRNKNSVA,PASTRES,QQYHELPLS,nd,0/3,3/9
KSYQSVWYESRNKNSVA,WASTRES,QQYTRLPLS,2.66,3/3,0/9
KSSQSVLYEKRNKNSVA,WASTRVS,QQYHRNPLS,nd,0/3,1/9
KSSQSVLYESRNKWSVA,WASTRES,QQYHRLLGS,4.41,1/3,4/9
KSAQSVLYESRNKNSVA,WASFRES,QQYHRLPLS,1.50,3/3,2/9
KSSQHVLYESRNKWSVA,WASTRES,QQYHRDPLS,nd,0/3,0/9
KSAQSVLYESRNKNSVA,WASTRES,QQYHTLHLS,4.38,2/3,3/9
KSSQSVLYESRNKNSEA,WASTMES,QQYDRLPLS,nd,0/3,1/9
KSSQSVLYESENKNSVA,AASTRES,QQYHRLPLS,1.46,3/3,3/9
KSSSSHLYESRVKNSVA,WASTRES,QQYHRLPLS,5.01,2/3,2/9
KSHQSKLYESRGKNSVA,WASTRES,QQYHRLPLS,2.45,3/3,1/9
KSSQSVLYEQRNKNSVA,LASTRES,CQYHRLPLS,3.15,3/3,4/9
KSSQSVEYESRNKNSVA,WASTKES,QQYHRLKLS,3.83,1/3,0/9
KASQSVLYETRNKNSVA,WASTRES,QQYQRLPLS,0.70,3/3,2/9
KSSQSVLYEAINKNSVA,WASTRES,QQYHRLYLS,3.59,1/3,0/9
KSKQSVLYGDRNKNSVA,WASTRES,QQYHRLPLS,0.61,3/3,0/9
KSSQSLLYENRNKNMVA,WASTRES,QQYHRLPLS,5.02,3/3,3/9
KSSQSVLYESRNKNSWA,WASTRES,WQYHREPLS,3.59,3/3,0/9
FSSQSVLYESRNKNSYA,WASTRES,QQYHRYPLS,nd,0/3,1/9
KSIQSVLYESRNKNSVD,WASTRES,YQYHRLPLS,3.97,1/3,1/9
KSSQSVLYESRNKNSVA,WAETHES,QQYHRLELS,2.95,3/3,3/9
KSSQSVLYENQNKNSVA,WASGRES,QQYHRLPLS,2.39,1/3,0/9
KSCQSVLYESRNKNSCA,WASTRES,QQYHRLPDS,4.74,2/3,2/9
KSSQSVLYESRQKNSVA,WASTRSS,QDYHRLPLS,1.47,3/3,4/9
KSSASCLYESRNKNSVW,WASTRES,QQYHRLPLS,4.65,1/3,3/9
KSSQSVLSESRNKNSVA,WASTRES,QQYHILDLS,2.59,3/3,0/9
KSSISVLYESRIKNSVA,WASTRES,QQYHRLPQS,nd,0/3,0/9
KSSQSVLYESRNKNSVA,WYSTREQ,QIYHRLPLS,3.32,1/3,2/9
KSSQSVLYESRNNNSVA,EISTRES,QQYHRLPLS,0.18,3/3,5/9
KSSQSVLYEYRNKNSVA,WVSVRES,QQYHRLPLS,2.84,3/3,3/9
PSSQSVLYESRNKNSVA,WASARES,QQFHRLPLS,4.88,1/3,4/9
KSCQSVLYESRNKNSVA,WASTRKS,QQYHRLVLS,nd,0/3,0/9
KSSQSVLYESRNKNSVA,WASTGES,QQYHMLPLS,5.04,1/3,1/9
KSSQSVLYESRNKNSEA,WASTRES,QQYHRLPQS,3.91,1/3,2/9
KSSQSVLYESRFPNSVA,WISTRES,QQYHRLPLS,1.57,1/3,0/9
KSSQSGLYESRNKNSVA,WASYRES,QQYHRLPLS,2.20,3/3,5/9
KRSQSVLYEPRNDNSVA,WASTRES,QQYHRLPLS,1.05,3/3,1/9
KFSQSVLYESRCKNSVA,WASTRES,QQYHRLPDS,nd,0/3,0/9
KSSQSVLYESRNKNSIA,WAPTRES,QQYHDLPLS,1.06,3/3,0/9
KSSQSVLYESRNKNSVP,VASTRES,QQYHILPLS,3.48,1/3,0/9
KTSQSVLYESRNKNSVA,WASTRES,QQYHRLCQS,3.35,1/3,1/9
KSSQSVLTECRNKNSVA,WASWRES,QQYHRLPLS,2.23,3/3,0/9
KSSQSVLYESNNKNSVQ,WASTRES,QQYHRLPLS,nd,0/3,0/9
KSSHSVLPESRNKNSCA,WASTRES,QQYHRLPLS,nd,0/3,0/9
KSEQSVLYESRNKNSVA,WASTRES,QQYTRLWLS,nd,0/3,1/9
KSSQSVKYESRHKNSVA,WASTRWS,QQYHRLPLS,0.89,3/3,0/9
KSSQSVLYESRNKNSVA,WASTYES,QKYHRSPLS,nd,0/3,2/9
KSSTSVLYESRNKNSVA,WASTRES,QQYHMQPLS,4.16,2/3,1/9
KSSQSVEYESRYGNSVA,WASTRES,QQYHRLPLS,1.24,3/3,1/9
KSSQSVLYEWRLKNSVL,WASTRES,QQYHRLPLS,nd,0/3,0/9
KSSQSNLYESRNKNSVA,WASTRIS,QQYHRLPLM,1.34,3/3,1/9

Excerpt, the final 7 entries:

CDR-L1,CDR-L2,CDR-L3,"log10 Kd (nM), mean",detected,control signals
KSEQSVLYESRNKNSVA,WASTRES,QQYTRLWLS,nd,0/3,1/9
KSSQSVKYESRHKNSVA,WASTRWS,QQYHRLPLS,0.89,3/3,0/9
KSSQSVLYESRNKNSVA,WASTYES,QKYHRSPLS,nd,0/3,2/9
KSSTSVLYESRNKNSVA,WASTRES,QQYHMQPLS,4.16,2/3,1/9
KSSQSVEYESRYGNSVA,WASTRES,QQYHRLPLS,1.24,3/3,1/9
KSSQSVLYEWRLKNSVL,WASTRES,QQYHRLPLS,nd,0/3,0/9
KSSQSNLYESRNKNSVA,WASTRIS,QQYHRLPLM,1.34,3/3,1/9

From the AlphaSeq antibody data of Engelhart et al. 2022 (doi:10.1038/s41597-022-01779-4), copy in the FLAb collection.